We go through 2 molecules from ChEMBL document CHEMBL3351571, “Peptidomimetics of Arg-Phe-NH2 as small molecule agonists of Mas-related gene C (MrgC) receptors” (Bioorg Med Chem, 2014).

One assay relates to MrgC (Rattus norvegicus). The experiment in a line: Agonist activity at rat MrgC transfected in HEK293 cells at 2 uM by FLIPR assay.
Assay [1] addresses Mas-related G-protein coupled receptor member X1 (Homo sapiens, UniProt Q96LB2). The experiment in a line: Antagonist activity at human MrgX1 transfected in HEK293 cells at 200 uM by FLIPR assay. Format: cell-based.

The source made the active and inactive calls. The calls are words filed in the database; no cut-off is given here.

For the molecule `COc1ccc(-c2ccc(C(=O)Nc3cccc(Cn4ncc(N5CCNCC5)cc4=O)c3C)cc2)cn1`, the result in the assay on MrgC (Rattus norvegicus) was inactive.
On to `N=C(N)NCCC[C@H](N)C(=O)N[C@@H](Cc1ccccc1)C(N)=O`, for which the outcome in assay [1] was inactive.
